Assay results as given in patent US12178841B2 (dated 2024).

Legend:
[1] = summary of product characteristics for Promixin; cited from earlier work

For colistimethate sodium, the “P. aeruginosa acquiring resistance to colistimethate sodium during clinical use” value [1] is listed as “reports of P. aeruginosa acquiring resistance”, the “development of colistimethate resistance (in words)” value (Pseudomonas aeruginosa; active vs placebo groups) is listed as “no data suggestive of development of colistimethate resistance” and the “development of P. aeruginosa resistance to colistin sulphate (antibiotic resistance)” value (Pseudomonas aeruginosa; patients on CMS treatment) is listed as 1%.
